## Apparent affinities of Ab-14 variants for a coronavirus HR2 peptide

Binding partner: SARS-CoV-2 spike HR2 peptide, sequence PDVDLGDISGINAS.

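The starting antibody came from a phage panning campaign against this peptide. This is the validation round: designs drawn from the data on random variants, tested in the same kind of assay. Their group label is 14L_GP_Gibbs (GP: Gaussian process model; Gibbs: Gibbs sampling; a sequence that several methods proposed may carry one label only). AlphaSeq pools MATa yeast showing the antibodies with MATalpha yeast showing the peptide. Binding brings cells together so that they mate, and sequencing counts the barcode pairs among the diploids. Scores were corrected for input abundance and mapped to Kd with protein pairs of known affinity run in the same pool. The assay was run in six technical replicates.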

Parent: Ab-14, a human scFv built as VH, a 15-residue (Gly4Ser)3 linker, VL. Only the CDRs of the light chain vary.
VH: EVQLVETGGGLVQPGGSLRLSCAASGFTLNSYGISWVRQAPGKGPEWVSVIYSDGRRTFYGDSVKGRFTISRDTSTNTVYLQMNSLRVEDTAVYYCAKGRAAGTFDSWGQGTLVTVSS
VL: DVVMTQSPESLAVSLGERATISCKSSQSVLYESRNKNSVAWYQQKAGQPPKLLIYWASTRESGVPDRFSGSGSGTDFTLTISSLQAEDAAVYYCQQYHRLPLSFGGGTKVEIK

Variants are written as CDR1, CDR2 and CDR3 of the light chain (limits as in the source). Parent: KSSQSVLYESRNKNSVA, WASTRES, QQYHRLPLS.
Numbers give log10(Kd / nM), so 0 is 1 nM and 3 is 1 µM. Smaller is tighter.
A pair that was not seen in that replicate is written "nd"; this usually means weak binding, but a binder can also be missed.
As a blank, each scFv also met three strains without target: over all light chain designs, 4% of these pairings were detected, typically at 2.64 and seldom below 1.59. Also given: how often the same scFv was detected with the empty control strains, with their mean in brackets.
The authors' rule: three or more of the six replicates give a measured affinity, fewer mean a poor binder.
A sequence measured in both rounds can read differently, since the two assays cover different ranges.

| CDR-L1 | CDR-L2 | CDR-L3 | log10 Kd, replicates | empty controls |
|---|---|---|---|---|
| KLSQSDNYESRNKNSVA | HASCRCS | QQYHRLPLS | 0.88 0.75 0.85 0.68 0.68 0.72 | 1 of 18 (2.61) |
| KLMPSKEYESRMKNSVA | EASVREE | QQYHRLPLS | 0.29 0.81 0.20 0.49 0.09 0.98 | 0 of 18 |
| KLMQGWLYESRNKNSVA | NASMRLE | QQYHRLPLS | 0.33 0.46 0.14 0.16 0.26 0.34 | 0 of 18 |
| ILWQSQLYESRNKNSVA | NASTREM | QQYHRLPLS | 0.56 0.29 0.10 0.14 0.29 0.55 | 1 of 18 (2.78) |
| KASQSEPYEDRNFNSVA | NASYRCS | QQYHRLPLS | 1.07 0.65 0.49 0.43 0.52 0.76 | 1 of 18 (3.68) |
| KLSQSVEYESRDKNSVA | DANTRLS | QQYHRLPLS | -0.02 0.27 0.28 0.46 -0.11 0.31 | 0 of 18 |
| KLSESVLYESRNKNSVA | NASTRES | QQYHRLPLI | 0.43 0.05 0.03 0.11 0.13 0.19 | 2 of 18 (2.69) |
| KVSTSQEYEDRNKNSVA | HASTREQ | QQYHRLPLS | 0.21 0.21 0.07 0.00 0.21 0.10 | 2 of 18 (2.15) |
| KLMQLVLYESRNKNSVA | NASTREQ | QQYHRLPLS | 0.25 0.36 0.03 0.37 0.40 0.60 | 0 of 18 |
| KVDSAFLYEQRNKNSVA | DASQRES | QQYHRLPLS | -0.21 -0.12 -0.31 -0.30 -0.30 0.08 | 1 of 18 (2.22) |
| KLYQSEWYESRMCNSVA | NASVREV | QQYHRLPLS | 0.80 0.74 0.53 0.35 0.65 0.78 | 1 of 18 (2.45) |
| KLSQSFLYESMNKNSVA | EASQRIW | QQYHRLPLS | 0.15 0.14 0.09 -0.11 0.11 0.35 | 2 of 18 (2.48) |
| KIQQSVYYEDLNKNSVA | HASTRCS | QQYHRLPLS | 0.32 0.39 0.17 0.43 0.00 0.29 | 0 of 18 |
| KYWQSHLGESRNWNAVA | NASTREE | QQYHRLPLS | 2.24 1.29 2.32 1.97 1.90 1.55 | 0 of 18 |
| KMQQSVWYEQRNFNSVA | NGSTREQ | QQYHRLPLS | 0.19 0.38 0.17 0.13 0.15 0.30 | 0 of 18 |
| KLYCGVDYGDRNKNQVA | HASQRES | QQYHRLPLS | 0.60 0.45 0.35 0.41 0.42 0.92 | 2 of 18 (2.91) |
| KFSQSWGMESRNKNQVA | HASTRMS | QQYHRLPLS | 0.91 0.42 0.44 0.70 0.86 1.04 | 0 of 18 |
| KLSQSFMYEERNPNSVA | NASKREE | QQYHRLPLS | 0.01 0.23 0.13 0.06 -0.04 0.02 | 3 of 18 (1.66) |
| KSAYSCLLESRNCNSVA | SASTREV | QQYHRLPLS | 0.67 0.48 0.62 0.40 0.58 0.53 | 0 of 18 |
| KLSQSMSYEWRNCNNVA | NASQRLS | QQYHRLPLS | 0.94 0.78 0.60 0.67 0.53 0.76 | 1 of 18 (2.36) |
| KLQGSVGYEERNKNSVA | GASQRES | QQYHRLPLS | 0.18 0.07 -0.07 -0.18 0.04 0.35 | 1 of 18 (2.19) |
| KCAQGWLYESRNKNNVA | NASQREH | QQYHRLPLS | -0.69 -0.73 -0.76 -0.66 -1.07 -0.61 | 2 of 18 (2.45) |
| KLQSLEQYESRWKNSVA | SASTRES | QQYHRLPLS | 0.52 0.31 0.52 0.31 0.20 0.54 | 0 of 18 |
| KLSQSVLLESRNWNAVA | MASTRMD | QQYHRLPLS | 0.53 0.42 0.16 0.13 0.14 0.41 | 0 of 18 |
| KARQSNLYESRNQNSVA | NASQRLE | QQYHRLPLS | 0.75 0.34 0.36 0.41 0.41 0.44 | 2 of 18 (2.64) |
| KSSWGVDDESRNDNQVA | KASTRLS | QQYHRLPLS | 0.55 0.53 0.48 0.25 0.43 0.40 | 1 of 18 (3.44) |
| KLSQSWLMESRNSNSVA | DASTRLS | QQYHRLPLS | 0.14 -0.17 -0.18 -0.33 -0.30 0.01 | 2 of 18 (2.73) |
| KLSQSVGMGSRNKWSVA | EASTRES | QQYHRLPLS | 0.51 0.35 0.35 0.29 0.27 0.51 | 4 of 18 (3.48) |
| KQSQSVGGMQRNKNSVA | EASTREM | QQYHRLPLS | 1.18 0.63 0.95 0.90 1.03 0.75 | 1 of 18 (2.76) |
| KLSQWVEMESRWKNSVA | SASQRNE | QQYHRLPLS | 0.25 0.74 0.48 0.03 0.63 0.75 | 2 of 18 (1.89) |
| KLVQSELYESRNKNNVA | GASQRES | QAYHRLPLS | -0.15 -0.30 -0.09 -0.39 -0.12 -0.08 | 1 of 18 (2.43) |
| KLPQSSLYESRNKNQVA | SASTREM | QQYHRLPLS | 0.83 0.48 0.71 0.15 0.96 0.96 | 0 of 18 |
| KSSASVEYQERLINSVA | EASQRES | QQYHRLPLS | 0.72 1.06 0.41 0.64 0.77 0.87 | 1 of 18 (2.91) |
| VLSASELYEDRMKNSVA | NASQRES | QQYHRLPLS | 0.42 0.01 0.28 0.03 0.21 0.43 | 1 of 18 (2.58) |
| KYAQSMLYESRNFNNVA | AASTRES | QQYHRLPLS | nd nd 0.14 nd nd 0.99 | 0 of 18 |
| KMSMSWMQLERNKNSVA | QASQREQ | QQYHRLPLS | -0.08 0.10 -0.10 -0.01 -0.33 0.15 | 0 of 18 |
| KYPQSELYESRNQNSVA | EASQREE | QQYHRLPLS | 0.62 -0.01 -0.01 0.23 -0.21 -0.02 | 0 of 18 |
| KLSQSVCYGDRMKNSVA | NASTREQ | QQYHRLPLS | 0.68 0.66 0.55 0.79 0.66 0.49 | 0 of 18 |

A selection of 3 entries from above:

CDR-L1,CDR-L2,CDR-L3,"log10 Kd, replicates",empty controls
KLSQSWLMESRNSNSVA,DASTRLS,QQYHRLPLS,0.14 -0.17 -0.18 -0.33 -0.30 0.01,2 of 18 (2.73)
KLMPSKEYESRMKNSVA,EASVREE,QQYHRLPLS,0.29 0.81 0.20 0.49 0.09 0.98,0 of 18
KYWQSHLGESRNWNAVA,NASTREE,QQYHRLPLS,2.24 1.29 2.32 1.97 1.90 1.55,0 of 18

Reference: Li et al. 2023, doi:10.1038/s41467-023-39022-2. File: FLAb, binding data.